Like-named read-outs stand apart in the source and are kept apart here.
Tests used:
[1] = molecular target: T1, charcoal absorbed human serum albumin (Homo sapiens, UniProt P02768)
[2] = molecular target: T1, charcoal absorbed human serum albumin; remark: listed apart in the source

The chains behind the UniProt entries cited, without tags or fusion partners. Residues count along the entry.
UniProt P02768, 25-609: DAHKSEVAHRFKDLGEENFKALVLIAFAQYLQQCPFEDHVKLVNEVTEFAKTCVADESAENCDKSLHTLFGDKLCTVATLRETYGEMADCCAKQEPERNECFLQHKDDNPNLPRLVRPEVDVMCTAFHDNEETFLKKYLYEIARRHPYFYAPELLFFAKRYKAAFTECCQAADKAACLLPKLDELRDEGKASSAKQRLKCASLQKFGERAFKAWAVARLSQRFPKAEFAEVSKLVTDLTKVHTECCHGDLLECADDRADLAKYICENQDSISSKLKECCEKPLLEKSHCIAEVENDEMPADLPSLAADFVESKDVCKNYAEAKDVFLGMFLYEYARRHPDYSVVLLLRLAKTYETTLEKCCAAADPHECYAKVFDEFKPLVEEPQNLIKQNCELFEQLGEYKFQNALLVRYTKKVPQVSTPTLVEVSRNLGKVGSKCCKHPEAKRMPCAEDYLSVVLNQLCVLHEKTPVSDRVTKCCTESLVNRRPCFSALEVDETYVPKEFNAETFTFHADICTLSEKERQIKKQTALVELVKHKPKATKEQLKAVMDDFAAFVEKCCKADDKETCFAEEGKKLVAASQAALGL

With O=[N+]([O-])c1ccc(O)c([N+](=O)[O-])c1 [2,4-dinitrophenol] the “% B/T, Free T4” value ([1]; 2,4-dinitrophenol 10 μg/ml) was 2.4%, the “% B/T, Free T4” value ([1]; 2,4-dinitrophenol 50 μg/ml) was 4.5% and the “% B/T, Free T4” value ([1]; 2,4-dinitrophenol 100 μg/ml) was 8.0%. The “% B/T, Free T4” value ([1]; 2,4-dinitrophenol 150 μg/ml) was 11.0%, the “% B/T, Free T4” value ([1]; 2,4-dinitrophenol 200 μg/ml) was 13.3% and the “% B/T, Free T4” value ([1]; 2,4-dinitrophenol 400 μg/ml) was 22.9%. The “% B/T, Free T4” value ([1]; 2,4-dinitrophenol 800 μg/ml) was 31.8%, the “% B/T, Free T4” value ([1]; 2,4-dinitrophenol 1000 μg/ml) was 34.1% and the “% B/T, Free T4” value ([1]; 2,4-dinitrophenol 1500 μg/ml) was 41.4%. The “% B/T, Free T4” value ([1]; 2,4-dinitrophenol 2000 μg/ml) was 43.2%, the “% B/T, Free T3” value ([2]; 2,4-dinitrophenol 10 μg/ml) was 1.0% and the “% B/T, Free T3” value ([2]; 2,4-dinitrophenol 150 μg/ml) was 4.3%. For the same molecule, the “% B/T, Free T3” value ([2]; 2,4-dinitrophenol 400 μg/ml) was 10.0%, the “% B/T, Free T3” value ([2]; 2,4-dinitrophenol 800 μg/ml) was 16.3% and the “% B/T, Free T3” value ([2]; 2,4-dinitrophenol 3000 μg/ml) was 28.2%. The “% B/T, Free T3” value ([2]; 2,4-dinitrophenol 3500 μg/ml) was 27.6% and the “% B/T, Free T3” value ([2]; 2,4-dinitrophenol 4000 μg/ml) was 27.3%.

From patent publication US6756233B1, “Method for measuring free ligands in biological fluids, and assay kits for measuring same” (priority 1985, dated 2004)
